{"sequences": {"note": "Chains of the proteins cited; added tags and fusions are not shown. Residues count along the entry.", "UniProt Q9HCR9, 445-933": "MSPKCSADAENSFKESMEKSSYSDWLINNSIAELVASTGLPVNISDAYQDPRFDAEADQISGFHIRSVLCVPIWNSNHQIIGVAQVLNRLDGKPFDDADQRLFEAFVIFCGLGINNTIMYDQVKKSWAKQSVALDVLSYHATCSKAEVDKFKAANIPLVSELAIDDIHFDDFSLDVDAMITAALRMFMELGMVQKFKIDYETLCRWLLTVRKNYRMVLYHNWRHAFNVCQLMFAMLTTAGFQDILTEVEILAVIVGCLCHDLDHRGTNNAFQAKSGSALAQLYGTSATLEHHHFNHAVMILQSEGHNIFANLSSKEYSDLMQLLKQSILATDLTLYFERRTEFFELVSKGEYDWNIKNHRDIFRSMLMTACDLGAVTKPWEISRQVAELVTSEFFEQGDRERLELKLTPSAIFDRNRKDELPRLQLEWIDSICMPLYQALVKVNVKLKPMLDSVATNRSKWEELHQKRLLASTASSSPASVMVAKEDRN"}, "source": "patent US6828473B2", "about": "“Modulation of PDE11A activity” (Pfizer Inc., priority 2000, dated 2004)", "biological_target": "T1, recombinant human PDE11A (Homo sapiens, UniProt Q9HCR9)", "T1 construct": "made in house; host or cells: Sf9 insect cells (baculovirus)", "assay": "PDE inhibition SPA assay, PDE11A", "assay_type": "biochemical", "conditions": "comparison of IC50 values", "data": [{"smiles": "Cl.O=C(O)C1CCN(c2nc(NCc3ccc4c(c3)OCO4)c3cc(Cl)ccc3n2)CC1", "note": "[UK-227,786 (E4021), 1-[4-[(1,3-benzodioxol-5-ylmethyl)amino]-6-chloro-2-quinazolinyl]-4-piperidinecarboxylic acid, monohydrochloride]", "values": [{"measurement": "selectivity for inhibiting PDE11A when compared to PDEs 7-10", "value": "demonstrated selectivity"}]}]}
